Each structure is given as a SMILES string. Only a part is listed here, and it is no random draw. Some salts or complexes appear as unconnected parts, following the source record. Activity calls are given as the source filed them. Calls come from the whole dose curve; as a rule, active = well fitted inhibition curve with a large enough effect; inconclusive = small, poorly fitted or top-dose-only effect; inactive = no such curve, though single readings can be large or run the other way.

Chains of the proteins cited; added tags and fusions are not shown.
UniProt O89049, whole entry: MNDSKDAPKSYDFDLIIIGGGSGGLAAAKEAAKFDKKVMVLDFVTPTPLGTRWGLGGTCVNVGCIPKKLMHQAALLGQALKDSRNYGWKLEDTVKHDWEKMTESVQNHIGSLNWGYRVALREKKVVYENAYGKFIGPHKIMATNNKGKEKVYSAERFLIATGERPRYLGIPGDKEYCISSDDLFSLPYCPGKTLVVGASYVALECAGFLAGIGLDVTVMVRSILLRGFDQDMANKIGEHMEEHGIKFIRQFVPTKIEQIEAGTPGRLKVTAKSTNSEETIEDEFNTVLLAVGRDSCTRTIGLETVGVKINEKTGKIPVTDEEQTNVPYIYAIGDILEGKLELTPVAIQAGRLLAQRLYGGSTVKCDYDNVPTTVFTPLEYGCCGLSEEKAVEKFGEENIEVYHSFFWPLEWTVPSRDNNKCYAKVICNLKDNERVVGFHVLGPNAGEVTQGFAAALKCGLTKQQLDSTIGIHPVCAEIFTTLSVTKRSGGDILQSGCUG

Results on 48 molecules are retold here after PubChem BioAssay AID588456 (National Center for Advancing Translational Sciences (NCATS), 2011).
% is set by controls: 0 for no effect and ±100 for the full control effect.

The assay has as its target Thioredoxin reductase 1, cytoplasmic (Rattus norvegicus) (UniProt O89049). Nature of the assay: qHTS Assay for Substrates of Mammalian Selenoprotein Thioredoxin Reductase 1 (TrxR1): qHTS. Note: nearly all actives have a fitted effect of over 50% in size. Particulars: purified TrxR1 substrate turnover, NADPH consumption readout; at 114 µM (top of the series) unless noted. (In general: Quantitative high-throughput screening tests each substance at several concentrations.)
As for `CC(C)c1ccc(C(=O)NCC2(N3CCOCC3)CCCCC2)cc1`, the activity change, negative = substrate turnover was inactive: -3.78%.
The value for `COc1ccc(NC2CCN(C(=O)OC(C)(C)C)CC2)cc1` was inactive: 2.44%; that for `CN1CCN(CCOC(=O)C(O)(c2ccccc2)c2ccccc2)CC1` was inactive: -4.48%; that for `O=C(NCC1(N2CCOCC2)CCCCC1)c1cc(=O)[nH]c2ccccc12` was inactive: 13.4% [at 57.1 µM].
The value for `COc1cc(C(=O)NCC2(N3CCCCC3)CCCCC2)ccc1OC(F)F` was inactive: 2.83%; that for `O=C(NCC1(N2CCCCC2)CCCCC1)c1cccc(C(F)(F)F)c1` was inactive: 6.28%.
The same measure for `CCCOc1cccc(C(=O)NCC2(N3CCOCC3)CCCCC2)c1`: inactive: -3.78%; for `O=[N+]([O-])c1cc([N+](=O)[O-])c(NCC2CCS(=O)(=O)C2)c([N+](=O)[O-])c1` (stereo not drawn): inactive: 8.78% [at 57.1 µM].
For the molecule `CCOc1ccc(C(=O)NCC2(N3CCOCC3)CCCCC2)cc1`, the activity change, negative = substrate turnover is inactive: 0.169%.
As to `O=C(NCC1(N2CCCCC2)CCCCC1)c1cccc([N+](=O)[O-])c1`, the activity change, negative = substrate turnover was inactive: -0.431%.
In the case of `CSc1ccc(C(=O)NCC2(N3CCOCC3)CCCCC2)cc1`, the activity change, negative = substrate turnover is inactive: -5.88%.
As for `CCN1CCC(Nc2ccc(Cl)cc2)CC1`, the activity change, negative = substrate turnover is inactive: 3.94%.
The value for `N#CC1(Nc2ccccc2)CCN(CCc2ccccc2)CC1` was inactive: 8.1%.
The value for `O=C(NCC1(N2CCCCC2)CCCCC1)c1ccc(OC(F)F)cc1` was inactive: 6.35% [at 57.1 µM]; that for `CCCCOc1ccccc1C(=O)NCC1(N2CCOCC2)CCCCC1` was inactive: 1.16%.
Take `O=C(NCC1(N2CCOCC2)CCCCC1)c1ccccc1Br`: the activity change, negative = substrate turnover was inactive: 2.04%.
The same measure for `CCCOc1ccc(C(=O)NCC2(N(C)C)CCCCC2)cc1OC`: inactive: -3.3%.
The same measure for `CN1CCC(Nc2cccc(F)c2)CC1`: inactive: -4.75%; for `COc1ccc2c(c1O)-c1c(O)c(OC)cc3c1[C@H](C2)[N+](C)(C)CC3.O=[N+]([O-])c1cc([N+](=O)[O-])c([O-])c([N+](=O)[O-])c1[O-]`: inactive: 130%.
`O=C(NCC1(N2CCCCC2)CCCCC1)c1cncc(Br)c1`: the activity change, negative = substrate turnover is inactive: -3.77%.
The same measure for `O=C(OC1CN2CCC1CC2)c1ccc([N+](=O)[O-])cc1` (stereo not drawn): inactive: 15.9%.
Regarding `COc1cc(OC)c(C(=O)NCC2(N(C)C)CCCCC2)cc1OC`, the activity change, negative = substrate turnover was inactive: 10.4%.
The value for `O=C(NCC1(N2CCOCC2)CCCCC1)c1cc(F)c(F)cc1Cl` was inactive: 3.36%; that for `COc1ccc(CN(CCCl)CCCl)cc1Cl` was inactive: 5.88%.
The same measure for `CN(C)c1cccc(C(=O)NCC2(N3CCCCC3)CCCCC2)c1`: inactive: 3.68%; for `O=[N+]([O-])c1cc([N+](=O)[O-])c(OC2CCCCC2O)c([N+](=O)[O-])c1` (stereo not drawn): inactive: -16.3% [at 57.1 µM]; for `CC(C)c1ccc(NC2CCN(C(=O)OC(C)(C)C)CC2)cc1`: inactive: -16.3% [at 57.1 µM].
Consider `CCOC(=O)N1CCC(Nc2ccc(OC)cc2)CC1`, for which the activity change, negative = substrate turnover was inactive: 1.67%.
The same measure for `O=C(NCC1(N2CCCCC2)CCCCC1)c1ccc(Cl)s1`: inactive: 0.0773%; for `N#CC1(Nc2ccccc2)CCN(Cc2ccccc2)CC1`: inactive: -4.81%; for `O=C(OC1CN2CCC1CC2)C1c2ccccc2Oc2ccccc21` (stereo not drawn): inactive: 8.07%.
In the case of `COc1ccc(Cl)cc1C(=O)NCC1(N2CCOCC2)CCCCC1`, the activity change, negative = substrate turnover is inactive: 3.98%.
The same measure for `O=C1C(O)=C([N+](=O)[O-])C(=O)C(O)=C1[N+](=O)[O-]`: inactive: -14.3%.
The value for `O=C(NCC1(N2CCOCC2)CCCCC1)c1cc2ccccc2o1` was inactive: 4.8%.
On to `O=C(NCC1(N2CCCCC2)CCCCC1)c1ccc(Cl)nc1`, for which the activity change, negative = substrate turnover is inactive: 2.2% [at 57.1 µM].
Consider `Cc1cc(C)cc(N(C(=O)c2ccccc2)C2CCN(C(=O)OC(C)(C)C)CC2)c1`, for which the activity change, negative = substrate turnover was inactive: -13.1%.
The same measure for `CSc1ccccc1C(=O)NCC1(N2CCCCC2)CCCCC1`: inactive: 1.06%; for `Cc1cccc(NC2(C#N)CCN(Cc3ccccc3)CC2)c1`: inactive: 8.15% [at 57.1 µM].
The same measure for `O=C(NCC1(N2CCCCC2)CCCCC1)c1ccc(=O)[nH]c1`: inactive: 6.51%; for `O=C(NCC1(N2CCCCC2)CCCCC1)c1cccs1`: inactive: 3.93%.
The same measure for `COc1ccc(C(=O)NCC2(N3CCCCC3)CCCCC2)cc1`: inactive: 2.67% [at 57.1 µM]; for `CC(C)(C)OC(=O)N1CCC(N(C(=O)c2ccccc2)c2ccc(F)cc2)CC1`: inactive: 3.06%.
Regarding `COc1ccc(C(=O)NCC2(N3CCCCC3)CCCCC2)c(OC)c1OC`, the activity change, negative = substrate turnover is inactive: -0.494%.
The same measure for `CCOC(=O)N1CCC(Nc2cccc(C)c2)CC1`: inactive: 2.29%; for `COc1cc(C(=O)NCC2(N(C)C)CCCCC2)ccc1OC(F)F`: inactive: 4%; for `CCCCOc1ccc(C(=O)NCC2(N3CCOCC3)CCCCC2)cc1`: inactive: -11.8%.
The same measure for `O=P1(N(CCCl)CCCl)SCCCS1`: inactive: 5.69%; for `CCOC(=O)N1CCC(Nc2ccc(F)cc2)CC1`: inactive: 0.932%.
